Sequences of proteins named here, by UniProt entry; tags and fusion partners are left off. A change or cut given only in a name is not applied to a line headed by its entry. A line that says so, or that is headed by a name, gives the form on record, which may keep a tag or linker. Residues count along the entry.
UniProt P00533, 25-1210 C797S/L858R limits assumed: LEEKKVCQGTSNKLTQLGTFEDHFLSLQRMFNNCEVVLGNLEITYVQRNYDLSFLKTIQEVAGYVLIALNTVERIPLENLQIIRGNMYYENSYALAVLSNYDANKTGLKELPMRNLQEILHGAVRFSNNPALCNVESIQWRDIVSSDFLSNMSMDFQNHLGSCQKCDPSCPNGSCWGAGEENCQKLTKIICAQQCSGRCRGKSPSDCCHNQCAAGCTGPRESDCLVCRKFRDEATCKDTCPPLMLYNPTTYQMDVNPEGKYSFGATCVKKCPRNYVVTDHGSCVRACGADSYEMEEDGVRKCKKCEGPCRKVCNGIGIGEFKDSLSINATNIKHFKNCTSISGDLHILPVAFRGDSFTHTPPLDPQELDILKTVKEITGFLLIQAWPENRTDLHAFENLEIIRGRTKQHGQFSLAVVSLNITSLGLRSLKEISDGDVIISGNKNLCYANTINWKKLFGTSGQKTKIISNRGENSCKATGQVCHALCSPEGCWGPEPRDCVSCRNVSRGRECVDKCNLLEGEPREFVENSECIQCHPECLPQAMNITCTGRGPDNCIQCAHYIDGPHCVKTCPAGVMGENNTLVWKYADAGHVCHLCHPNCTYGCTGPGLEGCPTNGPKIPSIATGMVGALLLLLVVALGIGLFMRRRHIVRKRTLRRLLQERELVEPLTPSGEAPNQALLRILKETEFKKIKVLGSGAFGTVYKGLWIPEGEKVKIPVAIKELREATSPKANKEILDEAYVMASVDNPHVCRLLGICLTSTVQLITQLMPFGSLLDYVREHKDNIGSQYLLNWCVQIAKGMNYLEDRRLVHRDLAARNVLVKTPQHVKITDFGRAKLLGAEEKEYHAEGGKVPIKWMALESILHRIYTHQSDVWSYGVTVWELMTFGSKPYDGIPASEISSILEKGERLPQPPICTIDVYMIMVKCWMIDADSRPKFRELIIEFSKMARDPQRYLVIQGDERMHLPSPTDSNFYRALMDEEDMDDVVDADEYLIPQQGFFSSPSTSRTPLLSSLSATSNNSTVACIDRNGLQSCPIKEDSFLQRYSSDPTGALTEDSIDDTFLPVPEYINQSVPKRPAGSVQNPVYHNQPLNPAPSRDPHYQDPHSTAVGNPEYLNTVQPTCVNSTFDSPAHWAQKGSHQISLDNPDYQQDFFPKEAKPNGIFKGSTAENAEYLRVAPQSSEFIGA
UniProt P00533, 25-1210 T790M/C797S/L858R limits assumed: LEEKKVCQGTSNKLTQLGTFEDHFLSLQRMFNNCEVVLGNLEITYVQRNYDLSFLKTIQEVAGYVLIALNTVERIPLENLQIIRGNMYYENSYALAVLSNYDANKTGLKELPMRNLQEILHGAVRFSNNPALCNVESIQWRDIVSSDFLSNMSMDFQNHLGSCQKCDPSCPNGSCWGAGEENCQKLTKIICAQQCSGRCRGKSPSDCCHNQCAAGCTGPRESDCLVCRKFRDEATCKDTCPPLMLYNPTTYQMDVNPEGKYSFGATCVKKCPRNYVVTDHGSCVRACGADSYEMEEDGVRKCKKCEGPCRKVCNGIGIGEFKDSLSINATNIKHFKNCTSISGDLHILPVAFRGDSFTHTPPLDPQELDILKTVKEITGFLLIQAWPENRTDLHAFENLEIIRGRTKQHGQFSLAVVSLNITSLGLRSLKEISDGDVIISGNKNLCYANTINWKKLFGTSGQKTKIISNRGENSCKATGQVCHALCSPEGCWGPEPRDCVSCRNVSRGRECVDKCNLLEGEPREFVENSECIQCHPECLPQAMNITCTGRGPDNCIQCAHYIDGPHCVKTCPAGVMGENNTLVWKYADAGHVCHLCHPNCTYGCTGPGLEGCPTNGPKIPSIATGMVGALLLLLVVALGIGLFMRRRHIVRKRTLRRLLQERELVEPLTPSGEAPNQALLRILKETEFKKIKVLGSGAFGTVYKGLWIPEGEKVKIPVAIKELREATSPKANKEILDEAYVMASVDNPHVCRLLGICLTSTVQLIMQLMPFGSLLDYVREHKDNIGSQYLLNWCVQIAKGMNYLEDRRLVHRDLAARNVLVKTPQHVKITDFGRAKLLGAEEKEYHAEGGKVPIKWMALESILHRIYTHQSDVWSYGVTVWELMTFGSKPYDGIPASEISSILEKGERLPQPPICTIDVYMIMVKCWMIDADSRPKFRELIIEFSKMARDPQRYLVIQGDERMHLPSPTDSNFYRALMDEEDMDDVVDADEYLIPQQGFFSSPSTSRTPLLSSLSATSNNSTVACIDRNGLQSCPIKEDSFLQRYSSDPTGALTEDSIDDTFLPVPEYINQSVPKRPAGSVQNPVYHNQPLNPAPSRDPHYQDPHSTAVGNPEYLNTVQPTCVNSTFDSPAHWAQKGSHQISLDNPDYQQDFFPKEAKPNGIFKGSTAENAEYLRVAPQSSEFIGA
UniProt P00533, with tags, fused parts or gaps DEL746-750/C797S limits assumed: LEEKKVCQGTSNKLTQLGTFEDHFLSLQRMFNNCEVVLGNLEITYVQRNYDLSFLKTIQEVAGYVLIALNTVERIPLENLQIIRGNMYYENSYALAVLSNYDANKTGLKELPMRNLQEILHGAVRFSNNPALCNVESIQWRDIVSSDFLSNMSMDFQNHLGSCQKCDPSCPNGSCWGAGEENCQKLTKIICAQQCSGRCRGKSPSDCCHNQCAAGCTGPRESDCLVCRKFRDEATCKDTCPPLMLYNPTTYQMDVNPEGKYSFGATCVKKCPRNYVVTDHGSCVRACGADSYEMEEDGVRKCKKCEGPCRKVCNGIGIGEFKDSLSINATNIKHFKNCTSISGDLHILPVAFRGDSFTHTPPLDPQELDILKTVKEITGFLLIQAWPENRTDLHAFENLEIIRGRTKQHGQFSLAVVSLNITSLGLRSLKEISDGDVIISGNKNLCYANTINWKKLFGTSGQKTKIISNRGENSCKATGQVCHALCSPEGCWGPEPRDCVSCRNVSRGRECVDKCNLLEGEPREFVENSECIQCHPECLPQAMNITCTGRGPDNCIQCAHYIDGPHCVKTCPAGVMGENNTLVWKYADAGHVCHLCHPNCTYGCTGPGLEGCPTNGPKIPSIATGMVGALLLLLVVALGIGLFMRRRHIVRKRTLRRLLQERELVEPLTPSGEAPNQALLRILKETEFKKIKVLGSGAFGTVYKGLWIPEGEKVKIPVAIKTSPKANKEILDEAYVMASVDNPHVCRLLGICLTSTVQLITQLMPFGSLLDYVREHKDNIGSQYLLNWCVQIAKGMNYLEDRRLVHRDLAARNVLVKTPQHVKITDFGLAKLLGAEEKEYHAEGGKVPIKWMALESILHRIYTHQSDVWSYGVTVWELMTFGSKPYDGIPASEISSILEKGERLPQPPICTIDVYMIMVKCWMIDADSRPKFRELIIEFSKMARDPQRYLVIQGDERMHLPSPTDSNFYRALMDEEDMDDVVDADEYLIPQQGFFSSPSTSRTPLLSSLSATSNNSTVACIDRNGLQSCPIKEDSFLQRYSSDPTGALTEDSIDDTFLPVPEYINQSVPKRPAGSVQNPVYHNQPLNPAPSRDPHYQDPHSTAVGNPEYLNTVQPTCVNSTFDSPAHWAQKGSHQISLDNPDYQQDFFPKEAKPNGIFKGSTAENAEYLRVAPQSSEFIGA
UniProt P00533, with tags, fused parts or gaps DEL746-750/T790M/C797S limits assumed: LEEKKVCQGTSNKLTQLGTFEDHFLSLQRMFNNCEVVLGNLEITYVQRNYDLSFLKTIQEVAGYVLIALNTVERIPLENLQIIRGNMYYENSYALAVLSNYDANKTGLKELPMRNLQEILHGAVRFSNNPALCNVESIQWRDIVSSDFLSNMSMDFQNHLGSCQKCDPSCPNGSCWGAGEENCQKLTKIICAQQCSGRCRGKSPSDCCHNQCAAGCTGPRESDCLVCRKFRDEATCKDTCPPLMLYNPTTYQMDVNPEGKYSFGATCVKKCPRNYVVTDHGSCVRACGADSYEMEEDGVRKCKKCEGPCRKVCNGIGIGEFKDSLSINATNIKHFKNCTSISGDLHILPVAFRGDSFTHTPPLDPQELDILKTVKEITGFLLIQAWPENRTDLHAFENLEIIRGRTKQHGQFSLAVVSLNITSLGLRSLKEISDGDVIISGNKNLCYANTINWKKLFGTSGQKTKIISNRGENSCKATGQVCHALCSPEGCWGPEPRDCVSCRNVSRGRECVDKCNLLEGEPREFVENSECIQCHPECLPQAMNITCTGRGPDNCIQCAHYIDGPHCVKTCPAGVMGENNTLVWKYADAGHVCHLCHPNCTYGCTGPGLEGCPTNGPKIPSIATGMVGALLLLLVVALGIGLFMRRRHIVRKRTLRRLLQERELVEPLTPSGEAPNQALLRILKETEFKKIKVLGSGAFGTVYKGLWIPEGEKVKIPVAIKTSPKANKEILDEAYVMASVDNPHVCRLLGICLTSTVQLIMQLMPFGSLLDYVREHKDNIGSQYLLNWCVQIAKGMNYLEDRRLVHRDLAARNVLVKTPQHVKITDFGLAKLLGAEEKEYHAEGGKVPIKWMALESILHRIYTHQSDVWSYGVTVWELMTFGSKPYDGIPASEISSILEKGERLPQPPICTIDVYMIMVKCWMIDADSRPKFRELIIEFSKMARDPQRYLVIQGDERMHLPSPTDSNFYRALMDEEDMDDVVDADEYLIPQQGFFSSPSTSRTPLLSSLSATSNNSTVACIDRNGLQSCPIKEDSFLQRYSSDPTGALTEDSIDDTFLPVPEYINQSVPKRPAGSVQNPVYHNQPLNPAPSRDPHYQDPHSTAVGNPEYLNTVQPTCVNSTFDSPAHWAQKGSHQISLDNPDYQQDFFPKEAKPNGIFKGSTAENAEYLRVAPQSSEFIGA
UniProt P00533, 25-1210 limits assumed: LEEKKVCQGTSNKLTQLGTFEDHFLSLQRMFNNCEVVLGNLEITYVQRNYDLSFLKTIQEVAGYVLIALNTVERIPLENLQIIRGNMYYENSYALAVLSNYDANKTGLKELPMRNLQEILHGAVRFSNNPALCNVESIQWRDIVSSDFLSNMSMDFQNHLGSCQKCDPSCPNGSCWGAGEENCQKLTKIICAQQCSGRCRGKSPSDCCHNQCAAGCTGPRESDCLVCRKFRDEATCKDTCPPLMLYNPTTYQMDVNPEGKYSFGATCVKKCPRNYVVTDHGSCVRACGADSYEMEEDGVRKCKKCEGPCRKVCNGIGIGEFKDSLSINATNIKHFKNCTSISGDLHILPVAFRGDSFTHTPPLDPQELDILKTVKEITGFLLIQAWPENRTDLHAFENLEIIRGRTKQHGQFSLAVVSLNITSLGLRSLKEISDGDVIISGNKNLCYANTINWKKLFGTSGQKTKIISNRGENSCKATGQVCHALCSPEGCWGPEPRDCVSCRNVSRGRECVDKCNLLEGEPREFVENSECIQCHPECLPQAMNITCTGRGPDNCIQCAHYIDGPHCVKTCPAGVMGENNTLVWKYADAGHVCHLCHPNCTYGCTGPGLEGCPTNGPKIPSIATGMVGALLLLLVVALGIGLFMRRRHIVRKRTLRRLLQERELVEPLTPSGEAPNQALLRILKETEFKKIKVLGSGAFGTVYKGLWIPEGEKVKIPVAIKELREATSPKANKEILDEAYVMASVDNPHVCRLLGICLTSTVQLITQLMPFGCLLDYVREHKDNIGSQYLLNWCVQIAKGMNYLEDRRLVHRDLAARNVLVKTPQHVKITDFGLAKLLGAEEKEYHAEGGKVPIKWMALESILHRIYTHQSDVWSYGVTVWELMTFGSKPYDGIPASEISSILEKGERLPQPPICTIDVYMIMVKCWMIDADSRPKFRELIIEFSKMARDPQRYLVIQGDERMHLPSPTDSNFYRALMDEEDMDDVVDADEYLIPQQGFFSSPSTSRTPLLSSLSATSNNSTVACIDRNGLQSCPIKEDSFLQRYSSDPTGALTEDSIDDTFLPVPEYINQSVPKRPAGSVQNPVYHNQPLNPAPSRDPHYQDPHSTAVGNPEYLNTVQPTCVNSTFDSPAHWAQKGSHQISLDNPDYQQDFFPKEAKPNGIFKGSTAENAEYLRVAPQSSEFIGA

In patent publication US20260384449A1, “MACROCYCLIC AMINOPYRIDINE COMPOUNDS AS EGFR INHIBITORS” (published 2026):

Experiments:
[1] = biological target: EGFR D19TMCS (del19/T790M/C797S) (Homo sapiens, UniProt P00533, C797S/DEL746-750/T790M); test: Biochemical EGFR kinase inhibition (Lance Ultra TR-FRET), del19/T790M/C797S; conditions: read-out: EGFR D19TMCS IC50
[2] = biological target: EGFR LRTMCS (L858R/T790M/C797S) (Homo sapiens, UniProt P00533, C797S/L858R/T790M); test: Biochemical EGFR kinase inhibition (Lance Ultra TR-FRET), L858R/T790M/C797S; conditions: read-out: EGFR LRTMCS IC50
EGFR D19CS (del19/C797S) = EGFR D19CS (del19/C797S) (Homo sapiens, UniProt P00533, C797S/DEL746-750); test: Biochemical EGFR kinase inhibition (Lance Ultra TR-FRET), del19/C797S; conditions: read-out: EGFR D19CS IC50
EGFR LRCS (L858R/C797S) = EGFR LRCS (L858R/C797S) (Homo sapiens, UniProt P00533, C797S/L858R); test: Biochemical EGFR kinase inhibition (Lance Ultra TR-FRET), L858R/C797S; conditions: read-out: EGFR LRCS IC50
EGFR WT = EGFR WT (Homo sapiens, UniProt P00533); test: Biochemical EGFR kinase inhibition (Lance Ultra TR-FRET), wildtype; conditions: read-out: EGFR WT IC50; ATP at Km

Row | Structure (SMILES) | IC50 ([1]; 1 mM ATP) [nM] | IC50 ([1]; ATP at Km) [nM] | IC50 ([2]; 1 mM ATP) [nM] | IC50 ([2]; ATP at Km) [nM] | IC50 (EGFR D19CS (del19/C797S); 1 mM ATP) [nM] | IC50 (EGFR D19CS (del19/C797S); ATP at Km) [nM] | IC50 (EGFR LRCS (L858R/C797S); 1 mM ATP) [nM] | IC50 (EGFR LRCS (L858R/C797S); ATP at Km) [nM] | IC50 (EGFR WT) [nM]
1 | Cc1nn(C)cc1C#Cc1cnc2cc1NCC[C@H](C)Oc1c(c(C)nn1C)-c1nccc(n1)N2 | < 10 | < 10 | < 10 | < 10 | 10 to 100 | < 10 | 10 to 100 | < 10 | 10 to 100
2 | C[C@@H]1CCOc2c(cnn2C)-c2nccc(n2)Nc2cc(c(C#Cc3cnn(C(F)F)c3)cn2)N1 | 10 to 100 | < 10 | 100 to 1000 | < 10 | > 1000 | 100 to 1000 | > 1000 | 100 to 1000 | 100 to 1000
3 | Cc1nn(C)c2c1-c1nccc(n1)Nc1cc(c(C#Cc3cnn(C)c3)cn1)NCC[C@H](C)O2 | < 10 | < 10 | < 10 | < 10 | 10 to 100 | < 10 | 10 to 100 | < 10 | 10 to 100
4 | C[C@H]1CCOc2c(cnn2C)-c2nccc(n2)Nc2cc(c(C#Cc3cnn(C)c3)cn2)N1 | < 10 | < 10 | < 10 | < 10 | 10 to 100 | < 10 | 100 to 1000 | < 10 | 10 to 100
5 | C[C@H]1CCOc2c(cnn2C)-c2nccc(n2)Nc2cc(c(C#Cc3cccnc3)cn2)N1 | < 10 | < 10 | < 10 | < 10 | < 10 | < 10 | 10 to 100 | < 10 | < 10
6 | C[C@@H]1CCOc2c(cnn2C)-c2nccc(n2)Nc2cc(c(C#Cc3cnn(CC(F)(F)F)c3)cn2)N1 | 10 to 100 | < 10 | 100 to 1000 | 10 to 100 | > 1000 | 100 to 1000 | > 1000 | > 1000 | > 1000
7 | Cc1cnc2nc1Nc1cc(c(C#Cc3cnn(C)c3)cn1)N[C@@H](C)CCOc1c-2cnn1C | > 1000 | 100 to 1000 | > 1000 | 10 to 100 | > 1000 | > 1000 | > 1000 | > 1000 | > 1000
8 | C[C@H]1CCOc2c(cnn2C)-c2nccc(n2)Nc2cc(c(C#Cc3ccn(C)n3)cn2)N1 | < 10 | < 10 | 10 to 100 | < 10 | 100 to 1000 | 10 to 100 | > 1000 | 100 to 1000 | 100 to 1000

Like-named read-outs stand apart in the source and are kept apart here.
